Test results as given in patent publication US20040126323A1, “Transdermal dosage form comprising an active agent and a salt and free-base form of an adverse agent” (published 2004).
Like-named read-outs stand apart in the source and are kept apart here.

What was measured:
[1] = Example 1 device, 2 cm^2 portion; for amount extracted, PBS: 15 mL PBS; for amount extracted, Diethyl Ether: 15 mL diethyl ether
[2] = Example 2 device, 2 cm^2 portion; for amount extracted, PBS: 15 mL PBS; for amount extracted, Diethyl Ether: 15 mL diethyl ether
[3] = 15 mL ethanol/water 75:25, 5 minutes
[4] = 15 mL ethanol/water 75:25, 10 minutes
[5] = 15 mL ethanol/water 75:25, 15 minutes
[6] = 15 mL ethanol/water 75:25, 20 minutes
[7] = 15 mL ethanol/water 75:25, 25 minutes
[8] = 15 mL ethanol/water 75:25, 30 minutes

SMILES | amount extracted, PBS ([2]; 5 minutes) [µg] | amount extracted, PBS ([2]; 10 minutes) [µg] | amount extracted, PBS ([2]; 15 minutes) [µg] | amount extracted, PBS ([2]; 20 minutes) [µg] | amount extracted, PBS ([2]; 25 minutes) [µg] | amount extracted, PBS ([2]; 30 minutes) [µg] | amount extracted, Diethyl Ether ([2]; 5 minutes) [µg] | amount extracted, Diethyl Ether ([2]; 10 minutes) [µg] | amount extracted, Diethyl Ether ([2]; 15 minutes) [µg] | amount extracted, Diethyl Ether ([2]; 20 minutes) [µg] | amount extracted, Diethyl Ether ([2]; 25 minutes) [µg] | amount extracted, Diethyl Ether ([2]; 30 minutes) [µg] | amount extracted, Ethanol/Water [2, 3] [µg] | amount extracted, Ethanol/Water [2, 4] [µg] | amount extracted, Ethanol/Water [2, 5] [µg] | amount extracted, Ethanol/Water [2, 6] [µg] | amount extracted, Ethanol/Water [2, 7] [µg] | amount extracted, Ethanol/Water [2, 8] [µg] | also measured
C=C1CC[C@@]2(O)[C@H]3Cc4ccc(O)c5c4[C@@]2(CCN3CC2CC2)[C@H]1O5 | 0 | 6 | 9 | 9 | 26 | 35 | 596 | 1092 | 1514 | 1425 | 1649 | 1346 | 48 | 179 | 334 | 469 | 568 | 721 | amount extracted, PBS ([1]; 5 minutes): 0 µg; amount extracted, PBS ([1]; 10 minutes): 0 µg; amount extracted, PBS ([1]; 15 minutes): 4 µg; amount extracted, PBS ([1]; 20 minutes): 5 µg; amount extracted, PBS ([1]; 25 minutes): 14 µg; amount extracted, PBS ([1]; 30 minutes): 15 µg; amount extracted, Diethyl Ether ([1]; 5 minutes): 0 µg; amount extracted, Diethyl Ether ([1]; 10 minutes): 52 µg; amount extracted, Diethyl Ether ([1]; 15 minutes): 193 µg; amount extracted, Diethyl Ether ([1]; 20 minutes): 314 µg; amount extracted, Diethyl Ether ([1]; 25 minutes): 318 µg; amount extracted, Diethyl Ether ([1]; 30 minutes): 353 µg; amount extracted, Ethanol/Water [1, 3]: 38 µg; amount extracted, Ethanol/Water [1, 4]: 140 µg; amount extracted, Ethanol/Water [1, 5]: 251 µg; amount extracted, Ethanol/Water [1, 6]: 480 µg; amount extracted, Ethanol/Water [1, 7]: 650 µg; amount extracted, Ethanol/Water [1, 8]: 834 µg
O=C1CC[C@@]2(O)[C@H]3Cc4ccc(O)c5c4[C@@]2(CCN3CC2CC2)[C@H]1O5 | 0 | 8 | 10 | 22 | 28 | 38 | 204 | 386 | 556 | 537 | 637 | 534 | 50 | 177 | 331 | 471 | 577 | 735 | –
